Reference: PubChem BioAssay AID624204 (Sanford-Burnham Center for Chemical Genomics, 2012)
The entries are a selection whose mix differs from that of the whole data set. The source made the active and inactive calls.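 Rule for the calls: active = inhibition at least 30% at 10 µM, raw YFP signal under a set limit, fluorescence ratio 0.5 to 1.5; inactive = the rest.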

The chains behind the UniProt entries cited, without tags or fusion partners. Residues count along the entry.
UniProt Q9P0U3, 419-644 limits assumed: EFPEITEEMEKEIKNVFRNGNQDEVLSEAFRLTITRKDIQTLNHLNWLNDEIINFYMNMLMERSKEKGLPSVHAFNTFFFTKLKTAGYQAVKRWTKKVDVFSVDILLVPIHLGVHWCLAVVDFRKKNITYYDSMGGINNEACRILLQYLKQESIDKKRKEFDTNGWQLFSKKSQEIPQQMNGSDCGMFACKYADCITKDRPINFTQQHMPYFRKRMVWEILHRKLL

Biological target: Sentrin-specific protease 1 (Homo sapiens) (UniProt Q9P0U3)
Test: human SENP1 catalytic domain inhibitors, primary screen, biochemical, FRET, uHTS (AID 624204);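 note: 0% = enzyme with DMSO and 100% = no enzyme wells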
Settings: recombinant SENP1 catalytic domain, CyPet-SUMO1-YPet FRET cleavage; at 10 µM; active compounds read high

Question: How did the inhibition turn out when `COc1cc(C(=O)NCC2(N3CCOCC3)CCCCC2)cc(OC)c1C` was run?
Answer: The inhibition was inactive: -0.6%.

Question: For `CCCCn1nnnc1C(c1ccccc1)N1CCC(n2c(=O)[nH]c3ccccc32)CC1` (stereo not given), which inhibition is on record?
Answer: Its inhibition is inactive: 3.06%.

Question: With `O=C(NCC1(N2CCOCC2)CCCCC1)c1cc(Br)ccc1Cl` as the molecule, how does the inhibition read?
Answer: Its inhibition is inactive: 1.06%.

Question: How did the inhibition turn out when `O=c1[nH]c2ccccc2n1C1CCN(C(c2cccs2)c2nnnn2C2CCCCC2)CC1` (stereo not given) was run?
Answer: The inhibition was inactive: -0.401%.

Question: For `O=c1[nH]c2ccccc2n1C1CCN(C(c2ccnc3ccccc23)c2nnnn2C2CCCC2)CC1` (stereo not given), which inhibition is on record?
Answer: The inhibition was inactive: 2.06%.

Question: Which inhibition does the source give for `COc1ccc(C(=O)NCC2(N3CCOCC3)CCCCC2)cc1OC` here?
Answer: Its inhibition is inactive: -0.867%.

Question: `COc1cccc(C(c2nnnn2C(C)(C)C)N2CCC(n3c(=O)[nH]c4ccccc43)CC2)c1OC` (stereo not given) was tested. Which inhibition did it give?
Answer: Its inhibition is inactive: 2.28%.

Question: With `CCOC(=O)N1CCC(Nc2ccc(C)cc2)CC1` as the molecule, how does the inhibition read?
Answer: Its inhibition is inactive: -0.808%.

Question: With `N/C(=N\O)c1c(N)no[n+]1[O-]` as the molecule, how does the inhibition read?
Answer: Its inhibition is inactive: -0.0533%.

Question: For `O=c1[nH]c2ccccc2n1C1CCN(C(c2cccs2)c2nnnn2C2CCCC2)CC1` (stereo not given), which inhibition is on record?
Answer: Its inhibition is inactive: -0.907%.

Question: How did the inhibition turn out when `O=C(OC1CN2CCC1CC2)C1c2ccccc2C=Cc2ccccc21` (stereo not given) was run?
Answer: The inhibition was inactive: 0.53%.

Question: Which inhibition does the source give for `CCCCn1nnnc1C(c1cccc(OC)c1OC)N1CCC(n2c(=O)[nH]c3ccccc32)CC1` (stereo not given) here?
Answer: Its inhibition is inactive: 2.71%.

Question: For `N#Cc1ccc(C(=O)NCC2(N3CCCCC3)CCCCC2)cc1`, which inhibition is on record?
Answer: The inhibition was inactive: -0.0589%.

Question: For `CC(C)(C)OC(=O)N1CCC(N(C(=O)c2ccccc2)c2ccc(Cl)cc2)CC1`, which inhibition is on record?
Answer: Its inhibition is inactive: -0.149%.

Question: With `CN(C)C1(CNC(=O)c2cccc(C#N)c2)CCCCC1` as the molecule, how does the inhibition read?
Answer: Its inhibition is inactive: 2.56%.

Question: Which inhibition does the source give for `O=c1[nH]c2ccccc2n1C1CCN(C(c2ccccc2)c2nnnn2C2CCCC2)CC1` (stereo not given) here?
Answer: The inhibition was inactive: 2.9%.

Question: With `CCCN1CCC(Nc2cc(OC)cc(OC)c2)CC1` as the molecule, how does the inhibition read?
Answer: The inhibition was inactive: 14.3%.

Question: With `Cc1cc(N(CCCl)CCCl)ccc1C=O` as the molecule, how does the inhibition read?
Answer: The inhibition was inactive: 1.18%.

Question: Which inhibition does the source give for `c1ccc(CN2CCC(Nc3ccccc3)CC2)cc1` here?
Answer: The inhibition was inactive: -3.19%.

Question: With `CC(C)(C)n1nnnc1C(c1cccc2ccccc12)N1CCC(n2c(=O)[nH]c3ccccc32)CC1` (stereo not given) as the molecule, how does the inhibition read?
Answer: The inhibition was inactive: 1.33%.

Question: For `CCC(c1nnnn1C1CCCCC1)N1CCC(n2c(=O)[nH]c3ccccc32)CC1` (stereo not given), which inhibition is on record?
Answer: Its inhibition is inactive: 3.28%.

Question: Which inhibition does the source give for `CC(=O)N(c1ccccc1)C1CCNCC1` here?
Answer: The inhibition was inactive: 2.54%.

Question: How did the inhibition turn out when `COc1cccc(C(c2nnnn2C2CCCCC2)N2CCC(n3c(=O)[nH]c4ccccc43)CC2)c1OC` (stereo not given) was run?
Answer: Its inhibition is inactive: 0.342%.

Question: For `O=c1[nH]c2ccccc2n1C1CCN(C(c2ccnc3ccccc23)c2nnnn2C2CCCCC2)CC1` (stereo not given), which inhibition is on record?
Answer: Its inhibition is inactive: -1.45%.

Question: For `COc1cc(OC)cc(C(=O)NCC2(N3CCCCC3)CCCCC2)c1`, which inhibition is on record?
Answer: The inhibition was inactive: 0.49%.

Question: For `Fc1ccccc1NC1CCN(Cc2ccccc2)CC1`, which inhibition is on record?
Answer: The inhibition was inactive: 1.67%.

Question: With `Cc1ccc(C(=O)NCC2(N3CCCCC3)CCCCC2)o1` as the molecule, how does the inhibition read?
Answer: Its inhibition is inactive: 0.745%.

Question: For `Cc1ccc(NC2(C#N)CCN(Cc3ccccc3)CC2)cc1`, which inhibition is on record?
Answer: Its inhibition is inactive: 1.72%.

Question: How did the inhibition turn out when `CC(C)(C)n1nnnc1C(c1ccnc2ccccc12)N1CCC(n2c(=O)[nH]c3ccccc32)CC1` (stereo not given) was run?
Answer: Its inhibition is inactive: 0.941%.

Question: `COc1ccc(C(c2nnnn2C2CCCCC2)N2CCC(n3c(=O)[nH]c4ccccc43)CC2)cc1` (stereo not given) was tested. Which inhibition did it give?
Answer: The inhibition was inactive: 4.2%.

Question: How did the inhibition turn out when `CCN1CCC(Nc2cccc(F)c2)CC1` was run?
Answer: The inhibition was inactive: -0.187%.

Question: `Cc1ccccc1NC1(C#N)CCN(Cc2ccccc2)CC1` was tested. Which inhibition did it give?
Answer: Its inhibition is inactive: 1.02%.

Question: Which inhibition does the source give for `Cn1c(=O)[nH]cc(N(CCCl)CCCl)c1=O` here?
Answer: The inhibition was inactive: 0.462%.

Question: With `CN(C)c1ccc(C(=O)NCC2(N3CCCCC3)CCCCC2)cc1` as the molecule, how does the inhibition read?
Answer: Its inhibition is inactive: 1.32%.

Question: `O=C(NCC1(N2CCCCC2)CCCCC1)c1ccco1` was tested. Which inhibition did it give?
Answer: The inhibition was inactive: 0.509%.

Question: `CN1CCC(Nc2ccc(F)c(Cl)c2)CC1` was tested. Which inhibition did it give?
Answer: Its inhibition is inactive: 3.6%.

Question: Which inhibition does the source give for `CCOc1ncccc1C(=O)NCC1(N2CCOCC2)CCCCC1` here?
Answer: Its inhibition is inactive: -0.138%.

Question: Which inhibition does the source give for `NN(c1ccccc1)C1CCN(CCc2ccccc2)CC1` here?
Answer: Its inhibition is inactive: 2.03%.

Question: How did the inhibition turn out when `O=C(O)C1(Nc2ccccc2)CCN(Cc2ccccc2)CC1` was run?
Answer: Its inhibition is inactive: -13.6%.

Question: For `CC(C)(C)OC(=O)N1CCC(Nc2ccccc2)CC1`, which inhibition is on record?
Answer: Its inhibition is inactive: -0.677%.

Question: With `CCCOc1ccc(C(=O)NCC2(N(C)C)CCCCC2)cc1` as the molecule, how does the inhibition read?
Answer: The inhibition was inactive: -0.544%.

Question: `O=c1[nH]c2ccccc2n1C1CCN(C(c2cc3ccccc3o2)c2nnnn2C2CCCC2)CC1` (stereo not given) was tested. Which inhibition did it give?
Answer: Its inhibition is inactive: 0.789%.

Question: How did the inhibition turn out when `COc1cccc(C(=O)N(c2cc(C)cc(C)c2)C2CCN(C(=O)OC(C)(C)C)CC2)c1` was run?
Answer: The inhibition was inactive: 3.12%.

Question: With `COc1cccc(C(c2nnnn2C2CCCC2)N2CCC(n3c(=O)[nH]c4ccccc43)CC2)c1OC` (stereo not given) as the molecule, how does the inhibition read?
Answer: Its inhibition is inactive: -1.82%.

Question: How did the inhibition turn out when `COc1cc(OC)cc(C(=O)NCC2(N3CCOCC3)CCCCC2)c1` was run?
Answer: Its inhibition is inactive: 3.48%.

Question: Which inhibition does the source give for `CCC(CO)(C(=O)OC1CN2CCC1CC2)c1ccccc1` (stereo not given) here?
Answer: The inhibition was inactive: 3.55%.

Question: Which inhibition does the source give for `CN1CCC(Nc2ccc(Cl)cc2)CC1` here?
Answer: Its inhibition is inactive: 1.61%.

Question: For `CCC(c1nnnn1C1CCCC1)N1CCC(n2c(=O)[nH]c3ccccc32)CC1` (stereo not given), which inhibition is on record?
Answer: The inhibition was inactive: -0.913%.

Question: Which inhibition does the source give for `COc1ccc(C(=O)NCC2(N3CCCCC3)CCCCC2)c(OC)c1OC` here?
Answer: Its inhibition is inactive: -0.0193%.

Question: How did the inhibition turn out when `CC(C)(C)OC(=O)N1CCC(N(C(=O)c2ccccc2)c2ccc(F)cc2)CC1` was run?
Answer: The inhibition was inactive: 3.42%.

Question: Which inhibition does the source give for `COc1ccc(C(=O)NCC2(N3CCCCC3)CCCCC2)cc1` here?
Answer: The inhibition was inactive: -19.9%.

Question: For `CCCCn1nnnc1C(c1cccs1)N1CCC(n2c(=O)[nH]c3ccccc32)CC1` (stereo not given), which inhibition is on record?
Answer: The inhibition was inactive: -0.262%.

Question: `CCCCn1nnnc1C(CC)N1CCC(n2c(=O)[nH]c3ccccc32)CC1` (stereo not given) was tested. Which inhibition did it give?
Answer: The inhibition was inactive: 2.81%.

Question: Which inhibition does the source give for `O=C(NCC1(N2CCCCC2)CCCCC1)c1cccs1` here?
Answer: The inhibition was inactive: -18.9%.

Question: For `O=C(NCC1(N2CCCCC2)CCCCC1)c1ccc(=O)[nH]c1`, which inhibition is on record?
Answer: Its inhibition is inactive: 2.32%.

Question: `Cc1cccc(NC2(C#N)CCN(Cc3ccccc3)CC2)c1` was tested. Which inhibition did it give?
Answer: The inhibition was inactive: -2.53%.

Question: For `CSc1ccccc1C(=O)NCC1(N2CCCCC2)CCCCC1`, which inhibition is on record?
Answer: Its inhibition is inactive: -27.4%.

Question: How did the inhibition turn out when `Cc1cc(C)cc(N(C(=O)c2ccccc2)C2CCN(C(=O)OC(C)(C)C)CC2)c1` was run?
Answer: The inhibition was inactive: 2.53%.

Question: With `O=c1[nH]c2ccccc2n1C1CCN(C(c2ccccc2OC(F)(F)F)c2nnnn2C2CCCCC2)CC1` (stereo not given) as the molecule, how does the inhibition read?
Answer: Its inhibition is inactive: 1.15%.

Question: With `O=C(NCC1(N2CCCCC2)CCCCC1)c1ccc(Cl)nc1` as the molecule, how does the inhibition read?
Answer: Its inhibition is inactive: -9.17%.
